Experimental data as given in patent US9186402B2 (dated 2015).

Amino acid sequences for entries named in this document (tags omitted).
UniProt Q92769, whole entry: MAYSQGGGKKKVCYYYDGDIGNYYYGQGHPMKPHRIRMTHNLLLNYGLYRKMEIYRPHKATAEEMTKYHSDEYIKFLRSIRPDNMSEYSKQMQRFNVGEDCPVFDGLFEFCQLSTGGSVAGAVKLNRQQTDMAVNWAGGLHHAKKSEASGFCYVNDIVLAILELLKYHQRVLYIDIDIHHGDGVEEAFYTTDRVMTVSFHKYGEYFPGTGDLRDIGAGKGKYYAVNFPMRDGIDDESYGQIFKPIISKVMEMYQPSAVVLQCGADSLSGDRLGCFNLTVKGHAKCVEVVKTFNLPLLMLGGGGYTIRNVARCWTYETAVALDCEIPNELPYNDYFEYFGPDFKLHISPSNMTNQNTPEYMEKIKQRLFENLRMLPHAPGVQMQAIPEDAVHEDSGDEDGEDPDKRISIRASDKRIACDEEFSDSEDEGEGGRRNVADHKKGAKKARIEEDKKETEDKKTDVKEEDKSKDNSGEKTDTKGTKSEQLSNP

Target: HDAC2 (Homo sapiens, UniProt Q92769)
Assay: HDAC2 inhibition, trypsin-coupled kinetic fluorescence homogeneous assay
Assay type: biochemical

Q: With `CC(C)[C@@H]1NC(=O)[C@]2(C)CSC(=N2)c2csc(n2)CNC(=O)C[C@@H](/C=C/CCS)NC1=O` [ab6_123a amide thiol] as the compound, how does the IC50 read?
A: Its IC50 is 11.1 nM.
